## Yeast mating assay B: variants of the scFv Ab-14

Reference: Li et al. 2023, doi:10.1038/s41467-023-39022-2. File: FLAb, binding data.

Target peptide (SARS-CoV-2 spike, HR2 region): PDVDLGDISGINAS

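Phage display of a naive human antibody library on the peptide gave the parent. The variants were designed computationally from a first round of random CDR variants and then made and measured. Their group label is 14L_GP_Gibbs (GP: Gaussian process model; Gibbs: Gibbs sampling; a sequence that several methods proposed may carry one label only). The scFvs were displayed on barcoded MATa yeast, the peptide on MATalpha yeast. Pairs that bind mate more often; barcode pairs of the diploids are counted by sequencing. A regression on co-assayed BCL2-family reference pairs converts the normalised counts of each replicate to an apparent Kd. Each pool was mated in six replicate cultures.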

Ab-14 is the parent antibody, in scFv form: VH, then the linker GGGGSGGGGSGGGGS, then VL. The heavy chain is unchanged in all variants.
VH: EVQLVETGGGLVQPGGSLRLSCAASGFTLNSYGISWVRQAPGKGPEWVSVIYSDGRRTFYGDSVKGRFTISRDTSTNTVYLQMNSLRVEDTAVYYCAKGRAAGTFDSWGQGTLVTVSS
VL: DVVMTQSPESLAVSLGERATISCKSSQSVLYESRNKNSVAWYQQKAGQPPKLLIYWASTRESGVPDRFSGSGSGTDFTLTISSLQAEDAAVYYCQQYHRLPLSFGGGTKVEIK

Changes read parent residue, position, new residue, counted from the first residue of the VL shown.
The read-out is the apparent dissociation constant on a log10 scale (nM): the lower, the stronger.
The mean shown is taken over the replicates in which the pair was detected.
Values of this round are not directly comparable with the first-round values of the same sequences.

| changes | log10 Kd (nM) by replicate | mean log10 Kd (nM) | empty controls |
|---|---|---|---|
| S25L/Q27E/E32Q/R34Q/K36W/S38Q/W56D/E61M | 0.03 -0.08 -0.14 -0.37 -0.26 -0.24 | -0.18 | 2 of 18 (2.51) |
| K24I/S25L/S26D/V29H/W56N/S58N/S62Q | 0.05 -0.15 -0.15 -0.30 -0.21 -0.13 | -0.15 | 3 of 18 (3.05) |
| S25F/V29N/L30G/S33Q/W56E/T59Q/S62Q | 0.07 0.13 0.09 -0.17 0.05 0.01 | 0.03 | 1 of 18 (4.12) |
| S25V/V29H/L30W/Y31G/W56H/T59L/S62V | 0.79 0.64 0.59 0.63 0.80 0.83 | 0.71 | 5 of 18 (2.88) |
| S25L/S26M/S28L/V29G/L30H/K36A/S38N/W56N/T59Q/S62Q | -0.22 -0.26 -0.44 -0.36 -0.29 -0.30 | -0.31 | 0 of 18 |
| Q27C/L30D/S33D/K36S/W56N/E61L/S62W | 0.35 0.31 0.01 0.25 0.34 0.59 | 0.31 | 0 of 18 |
| S25V/S26Y/V29N/K36D/S38N/W56N/T59L | 0.20 0.04 0.20 -0.13 0.14 0.07 | 0.09 | 0 of 18 |
| S25Y/Q27F/V29Y/Y31N/E32G/W56E | 0.49 0.29 0.33 0.61 0.45 0.53 | 0.45 | 0 of 18 |
| S25L/V29D/L30E/N35Q/K36F/W56N/E61M/S62M | 0.27 0.16 0.20 0.25 0.36 0.46 | 0.28 | 0 of 18 |
| S25V/Q27M/N35V/W56N/S103I | 0.44 0.34 0.50 0.31 0.38 0.35 | 0.39 | 2 of 18 (2.40) |
| S25L/S26Q/S33G/W56Q/T59Q/E61S/S62D | -0.04 -0.05 -0.44 -0.46 -0.19 -0.15 | -0.22 | 1 of 18 (2.44) |
| S25M/S28E/V29A/L30M/Y31M/E32L/K36Q/W56Q/S62Q | -0.02 -0.05 -0.16 -0.38 -0.19 -0.11 | -0.15 | 1 of 18 (3.31) |
| S25I/V29Y/S33D/N37W/W56N/E61L | 0.19 -0.01 0.08 0.04 0.11 0.40 | 0.13 | 1 of 18 (3.10) |
| S25V/Q27G/V29Q/K36S/S38A/W56N/E61M | 0.63 0.34 0.25 0.29 0.32 0.60 | 0.41 | 0 of 18 |
| S25L/S26Q/V29M/E32M/S33D/K36A/S38N/W56N/E61M | -0.30 -0.49 -0.57 -0.64 -0.69 -0.46 | -0.53 | 2 of 18 (2.80) |
| S25W/S26A/Q27W/V29Q/W56N/H98R | 0.33 -0.17 -0.24 -0.36 0.05 -0.01 | -0.07 | 0 of 18 |
| S25Q/Y31Q/E32G/S33E/W56N/T59Y/E61L | 0.69 0.35 0.21 0.27 0.35 0.41 | 0.38 | 1 of 18 (2.91) |
| S25L/Q27M/S28M/L30D/S33D/W56S | 0.51 0.42 0.05 0.30 0.37 0.32 | 0.33 | 3 of 18 (2.05) |
| S25L/S26E/Q27N/V29N/W56N/E61Y | -0.16 -0.23 -0.04 -0.01 -0.01 0.05 | -0.07 | 1 of 18 (2.19) |
| S25L/S26Q/Q27N/V29Q/L30E/N35M/W56N/T59Q/S62D | 0.13 -0.12 -0.01 -0.20 -0.14 -0.01 | -0.06 | 2 of 18 (3.14) |
| S25L/Q27S/V29W/Y31M/S33E/K36M/W56Q/T59Q/S62R | 0.80 0.46 0.19 0.52 0.16 0.43 | 0.43 | 0 of 18 |
| S25L/S26E/Q27E/S28D/V29A/W56Q/S62V | -0.33 -0.27 -0.34 -0.53 -0.58 -0.23 | -0.38 | 0 of 18 |
| S25L/S28W/V29Y/L30W/W56Q/S62V/H98W | 0.63 0.07 0.23 -0.04 0.31 0.35 | 0.26 | 0 of 18 |
| S25V/S28M/V29Q/L30P/S33E/S38N/W56N/E61M | 0.19 0.01 -0.18 -0.09 0.01 -0.01 | -0.01 | 1 of 18 (2.97) |
| S25L/S26H/Q27I/V29D/L30G/W56A/E61S/S62H | 0.21 0.05 0.04 0.13 0.11 0.23 | 0.13 | 0 of 18 |
| S25L/L30D/N35Q/W56N/S58Q | 0.68 -0.28 0.08 0.21 -0.06 0.20 | 0.14 | 0 of 18 |
| S25M/L30D/Y31L/K36D/S38A/W56M/E61M/S62D | 0.63 0.57 0.44 0.29 0.28 0.48 | 0.45 | 4 of 18 (3.20) |
| S25L/S26H/L30G/S38N/W56G/A57G/T59Q | -0.02 -0.18 -0.21 -0.22 -0.25 -0.31 | -0.20 | 0 of 18 |
| K24I/S25L/S26D/V29Q/W56N/S62M | 0.00 0.08 -0.17 -0.33 -0.24 0.00 | -0.11 | 0 of 18 |
| S25N/S26D/Q27P/V29H/Y31G/S38A/W56Q/S62E | -0.21 -0.11 0.52 0.38 0.15 0.34 | 0.18 | 0 of 18 |
| S25M/S26P/V29W/L30W/N35M/N37W/W56N/T59E | 0.16 0.08 -0.11 -0.13 0.06 0.07 | 0.02 | 1 of 18 (2.91) |

Picked from the list: the 4 lowest averages where every replicate gave a value.

| changes | log10 Kd (nM) by replicate | mean log10 Kd (nM) | empty controls |
|---|---|---|---|
| S25L/S26Q/V29M/E32M/S33D/K36A/S38N/W56N/E61M | -0.30 -0.49 -0.57 -0.64 -0.69 -0.46 | -0.53 | 2 of 18 (2.80) |
| S25L/S26E/Q27E/S28D/V29A/W56Q/S62V | -0.33 -0.27 -0.34 -0.53 -0.58 -0.23 | -0.38 | 0 of 18 |
| S25L/S26M/S28L/V29G/L30H/K36A/S38N/W56N/T59Q/S62Q | -0.22 -0.26 -0.44 -0.36 -0.29 -0.30 | -0.31 | 0 of 18 |
| S25L/S26Q/S33G/W56Q/T59Q/E61S/S62D | -0.04 -0.05 -0.44 -0.46 -0.19 -0.15 | -0.22 | 1 of 18 (2.44) |

The authors' rule: three or more of the six replicates give a measured affinity, fewer mean a poor binder.
Background: pairings of all light chain designs with three empty control strains gave a value in 4% of cases (median 2.64, 5th percentile 1.59). Values in that range, when seen in few replicates, are hard to tell from nonspecific mating. Also given: how often the same scFv was detected with the empty control strains, with their mean in brackets.